The numbers were not newly measured in patent publication US11395821B2, “Treatment of EGFR-driven cancer with fewer side effects” (G1 Therapeutics, Inc., priority 2017, dated 2022), which cites them from elsewhere.

For the data set the following is noted: all grades; GILOTRIF n=229, pemetrexed/cisplatin n=111; cited from earlier work.

In the case of pemetrexed/cisplatin, the diarrhea is given as 23%, the dry skin is recorded as 2%, the paronychia is reported as 0% and the pruritus is on record as 1%. Further, the rash/acneiform dermatitis is reported as 11% and the stomatitis is on record as 15%.
